## AlphaSeq binding of Ab-95 light chain variants to a spike HR2 peptide

The target is the same throughout: PDVDLGDISGINAS, from the HR2 region of SARS-CoV-2 spike.

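In library AAYL52, one, two or three CDR residues were substituted; doubles and triples were drawn at random. In AlphaSeq, yeast of one mating type display the scFv and yeast of the other type display the target. The frequency of each diploid, read from paired DNA barcodes, reflects how well the two displayed proteins bind. Each replicate has its own calibration line, from reference interactions of the BCL2 family. Each pool was mated in three replicate cultures.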

The variants keep the heavy chain, the linker and the frameworks of Ab-95 (scFv order VH, the linker GGGGSGGGGSGGGGS, VL).
VH: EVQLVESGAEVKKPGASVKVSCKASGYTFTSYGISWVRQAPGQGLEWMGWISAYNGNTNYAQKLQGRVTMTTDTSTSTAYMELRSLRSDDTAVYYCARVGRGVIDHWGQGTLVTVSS
VL: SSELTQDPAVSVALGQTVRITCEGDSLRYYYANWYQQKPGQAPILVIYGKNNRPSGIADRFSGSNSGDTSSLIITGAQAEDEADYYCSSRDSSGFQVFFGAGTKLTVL

The parent's light chain CDRs are EGDSLRYYYAN, GKNNRPS, SSRDSSGFQVF; each variant's own CDRs replace them letter for letter.
Numbers give log10(Kd / nM), so 0 is 1 nM and 3 is 1 µM. Smaller is tighter.
A mean of the replicates is given; it leaves out those without a signal.
An entry "nd" has no value in the source: the pair was not observed among the diploids in any replicate. This suggests poor binding but is not conclusive.
In this assay the parent's reference entry averaged 2.31; its copy inside this library read 2.25.
As a blank, each scFv also met three strains without target: over library AAYL52, 28% of these pairings were detected, typically at 3.91 and seldom below 2.90.

CDR-L1,CDR-L2,CDR-L3,"mean, log10 nM",detected
EGDSLRYYYLC,GKNNRPS,SSRDSSGFFVF,4.06,2/3
EGDSLRYYYAN,YKNNRPS,SSRDSWGFQVS,3.02,1/3
EGDSLRYYYAN,GKNNRPS,SIRSSSGRQVF,3.01,3/3
AGDSLRYYYAN,GDNNRPS,SSRDSSGVQVF,3.26,3/3
EGDSLRYYYAN,GQNNRPS,SSRWSSGQQVF,1.64,3/3
EGDSERYYYAN,GKNNRPS,SSRDSSGFGVS,3.71,1/3
EGDSLRYYYAN,GKNNPPS,SSGDCSGFQVF,3.70,2/3
EGDSLRYYYLN,GKNNRPA,SSRLSSGFQVF,3.98,3/3
EGDSLRYYYAN,GKANIPS,SPRDSSGFQVF,4.75,2/3
EQDSLRYYYAN,GKNIRPS,SSRDDSGFQVF,3.93,3/3
EGDCLRYYYAN,GKANRSS,SSRDSSGFQVF,4.71,2/3
EGDSLRYRYAN,GKNNMPS,SSRDSSGFQVF,2.43,3/3
EGDCLRYYYAN,GKNNRPQ,SSRDSSGFQVV,3.94,1/3
EGDLLRYYYAN,GKMNAPS,SSRDSSGFQVF,4.66,1/3
EGDSLRYYYSN,GKNNRPS,PSRDSSRFQVF,3.94,2/3
EGDSLRYYYAN,GKNNRPS,CSRDSEGFQVA,2.76,1/3
EGDSLRYYYAP,GKNNDPS,SSRDSSGFVVF,nd,0/3
EGHSLRPYYAN,GKNWRPS,SSRDSSGFQVF,3.58,1/3
EMDSLRYYYAN,GKNNRPS,SSCLSSGFQVF,3.77,3/3
EGDSLRYYYAN,GKNNRPS,SSRFSSGFQVT,3.24,2/3
EPDSLRYYYAN,EKNNRPS,SSRDSSGFCVF,5.15,2/3
EGDSLRYYYAN,GKNNRPS,SSRLSSGFAFF,2.57,3/3
EGDSRRYYHAN,GKNNRPS,SSRDSSGTQVF,3.84,3/3
EGDSDAYYYAN,GKNNRAS,SSRDSSGFQVF,4.16,3/3
EGDSLRYMYAN,GKNNRMS,SSRDSSGFQVP,2.72,3/3
EGDSLRYYYAN,GKNNRIS,SSSDSSGFQVV,3.93,3/3
EGDDLRYYYAN,GKNNMPS,SSRDSSGPQVF,3.93,2/3
EPDVLRYYYAN,GKNNRPS,YSRDSSGFQVF,3.80,3/3
EGDSLRYYYAN,FKNNRPS,SSRDYSGFQVM,nd,0/3
LGDSLRYDYAN,GKNNRPS,SSRDSSGQQVF,2.10,3/3
EGDSLRYYYFN,AKNNRPS,SSRDSSFFQVF,5.13,1/3
EGWSLRYYYAN,GGNNRPS,SSRDSSAFQVF,2.07,3/3
EGDSLRFYYAN,GKNNRPS,SSRDSLGEQVF,2.80,3/3
EGNSLRKYYAN,GKNNRPS,SSRDSSGFQEF,3.78,3/3
EGDRLNYYYAN,CKNNRPS,SSRDSSGFQVF,3.42,2/3
EGDSLRYYYHN,GKNNRPS,SSRDSSGFQVC,4.81,1/3
EGDSLRYYHAN,GKNNRPS,SSRDHSGRQVF,2.64,3/3
EYDSLRYYYAN,GKNARPS,SSRDSSGFAVF,3.85,2/3
EGDSLRLYYAN,GKGNRPS,SSRDSSGFQVG,3.54,2/3
EGDSLRYYHAN,GKNNCPS,SSRDSPGFQVF,3.91,3/3
EGDSLRYYYAN,YKNNRPS,SSRDSVGFQFF,nd,0/3
EGCSLRYYYAN,GKNNRPS,SSRDSSPFQVF,3.22,2/3
EGDSLRFYYAN,GKNNNPS,SSRDSSGFQVF,3.49,1/3
EGFSRRYYYAN,GKNNRPS,SSRDSCGFQVF,2.58,3/3
EQDSLRYYYAN,GKANTPS,SSRDSSGFQVF,4.35,1/3

Again, the first 3 entries without any signal:

CDR-L1,CDR-L2,CDR-L3,"mean, log10 nM",detected
EGDSLRYYYAP,GKNNDPS,SSRDSSGFVVF,nd,0/3
EGDSLRYYYAN,FKNNRPS,SSRDYSGFQVM,nd,0/3
EGDSLRYYYAN,YKNNRPS,SSRDSVGFQFF,nd,0/3

Data: MIT Lincoln Laboratory AlphaSeq set, Engelhart et al. 2022, doi:10.1038/s41597-022-01779-4, as distributed in FLAb.